The target in data set [1] is MDCK-MDR1: overexpression of Pgp (Homo sapiens, UniProt P08183). The experiment in a line: MDCK-MDR1 permeability and efflux.
The test system of data set [2] is Caco-2: endogenous transporters. Put plainly: Caco-2 permeability.
In the next data set the target is CYP 2D6 (Homo sapiens, UniProt P10635). The experiment in a line: CYP inhibition. Conditions: read-out: CYP inhibition IC50; CYP 2D6, substrate Dextromethorphan; ND = Not Detected.
The next data set concerns the target CYP 2C19 (Homo sapiens, UniProt P33261).
Data set [3] can be described thus: S9 microsome stability, CD-1 mouse. Conditions: text statement for rodent (mouse and rat) S9.
The subject of another data set is Sprague Dawley rats. Put plainly: 2-week IV once-a-day toxicity study with 2-week recovery in Sprague Dawley rats. It is filed as in vivo.

The chains behind the UniProt entries cited, without tags or fusion partners.
UniProt P08183, whole entry: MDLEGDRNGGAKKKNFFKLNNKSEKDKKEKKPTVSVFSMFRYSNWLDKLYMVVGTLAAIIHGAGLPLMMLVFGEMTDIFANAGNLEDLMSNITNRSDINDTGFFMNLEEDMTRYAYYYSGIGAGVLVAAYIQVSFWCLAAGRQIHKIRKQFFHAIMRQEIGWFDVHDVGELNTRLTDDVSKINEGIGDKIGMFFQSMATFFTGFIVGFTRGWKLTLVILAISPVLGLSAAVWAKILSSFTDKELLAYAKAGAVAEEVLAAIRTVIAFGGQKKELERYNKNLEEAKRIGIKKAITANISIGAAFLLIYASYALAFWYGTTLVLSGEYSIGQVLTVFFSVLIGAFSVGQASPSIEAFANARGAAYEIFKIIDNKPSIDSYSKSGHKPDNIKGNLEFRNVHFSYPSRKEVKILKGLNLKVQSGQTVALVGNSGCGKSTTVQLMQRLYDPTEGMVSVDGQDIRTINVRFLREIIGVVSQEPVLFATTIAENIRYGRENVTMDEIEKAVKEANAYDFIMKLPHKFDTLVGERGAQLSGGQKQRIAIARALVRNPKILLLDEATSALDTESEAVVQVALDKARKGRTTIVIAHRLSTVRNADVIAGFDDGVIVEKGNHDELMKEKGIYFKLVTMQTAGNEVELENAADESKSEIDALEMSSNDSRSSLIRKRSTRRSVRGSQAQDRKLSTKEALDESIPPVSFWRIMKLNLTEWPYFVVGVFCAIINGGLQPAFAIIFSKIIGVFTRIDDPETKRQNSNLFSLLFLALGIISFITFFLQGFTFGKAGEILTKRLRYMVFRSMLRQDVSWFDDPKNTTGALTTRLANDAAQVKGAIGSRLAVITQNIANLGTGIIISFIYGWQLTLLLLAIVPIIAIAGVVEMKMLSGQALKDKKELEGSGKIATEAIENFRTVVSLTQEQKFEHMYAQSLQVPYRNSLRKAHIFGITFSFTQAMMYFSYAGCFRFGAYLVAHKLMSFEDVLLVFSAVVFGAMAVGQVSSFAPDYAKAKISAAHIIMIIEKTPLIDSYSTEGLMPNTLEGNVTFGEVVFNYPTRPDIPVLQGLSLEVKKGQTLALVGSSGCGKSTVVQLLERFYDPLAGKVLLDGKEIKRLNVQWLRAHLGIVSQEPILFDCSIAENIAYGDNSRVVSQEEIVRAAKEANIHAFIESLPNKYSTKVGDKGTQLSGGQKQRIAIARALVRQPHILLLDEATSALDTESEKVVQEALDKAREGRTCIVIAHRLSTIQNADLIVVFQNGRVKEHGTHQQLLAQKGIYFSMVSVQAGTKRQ
UniProt P10635, whole entry: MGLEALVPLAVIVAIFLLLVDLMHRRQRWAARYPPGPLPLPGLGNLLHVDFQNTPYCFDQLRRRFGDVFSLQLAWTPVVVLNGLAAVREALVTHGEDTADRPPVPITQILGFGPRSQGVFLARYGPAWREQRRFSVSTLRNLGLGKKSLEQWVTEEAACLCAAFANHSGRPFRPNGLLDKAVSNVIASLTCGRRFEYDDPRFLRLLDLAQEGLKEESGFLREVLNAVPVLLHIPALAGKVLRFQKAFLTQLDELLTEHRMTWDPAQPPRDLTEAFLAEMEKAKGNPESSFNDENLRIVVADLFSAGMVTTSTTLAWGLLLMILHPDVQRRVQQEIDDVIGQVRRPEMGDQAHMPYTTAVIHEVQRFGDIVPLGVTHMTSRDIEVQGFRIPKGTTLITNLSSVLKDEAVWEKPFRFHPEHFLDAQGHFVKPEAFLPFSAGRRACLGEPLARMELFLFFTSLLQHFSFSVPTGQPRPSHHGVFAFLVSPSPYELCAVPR
UniProt P33261, whole entry: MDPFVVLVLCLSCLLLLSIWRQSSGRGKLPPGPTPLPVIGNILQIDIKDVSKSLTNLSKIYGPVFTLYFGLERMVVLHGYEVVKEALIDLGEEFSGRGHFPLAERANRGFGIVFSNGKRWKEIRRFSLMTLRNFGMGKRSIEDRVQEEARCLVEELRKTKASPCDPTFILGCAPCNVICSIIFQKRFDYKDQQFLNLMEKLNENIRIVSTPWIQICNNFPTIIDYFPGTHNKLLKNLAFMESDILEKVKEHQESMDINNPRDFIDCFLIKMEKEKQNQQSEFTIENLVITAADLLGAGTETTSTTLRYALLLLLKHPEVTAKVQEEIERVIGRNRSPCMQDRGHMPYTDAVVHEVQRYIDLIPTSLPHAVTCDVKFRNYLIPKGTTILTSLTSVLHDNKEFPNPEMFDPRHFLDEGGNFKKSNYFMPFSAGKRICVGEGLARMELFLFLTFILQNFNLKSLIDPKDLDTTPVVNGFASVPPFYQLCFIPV

Values joined by “and” are separate entries in the source; they are usually repeats but may differ in a detail not shown here. Equal values may be shown once.

In general, Papp A→B refers to how fast a substance crosses the layer from the apical side. A lower Papp A→B goes with poor permeation. One may read the Papp B→A as how fast a substance crosses the layer from the basolateral side. The IC50 is the point on the concentration scale where inhibition reaches its midpoint. Molecule `CO[C@H]1/C=C/O[C@@]2(C)Oc3c(C)c(O)c4c(=O)c(c5oc6cc(OCCN(C)C)cc(O)c6nc-5c4c3C2=O)NC(=O)/C(C)=C\C=C\[C@H](C)[C@H](O)[C@@H](C)[C@@H](O)[C@@H](C)[C@H](OC(C)=O)[C@@H]1C` had a Papp A→B in data set [1] of 1.33 ×10⁻⁶ cm/s. Moreover, the Papp B→A in data set [1] came out at 10.4 ×10⁻⁶ cm/s; in data set [2], 2.92 ×10⁻⁶ cm/s. Also, in data set [1], the recovery is 48.2% and 46.3%. Also, the Mean (B-A/A-B) Efflux Ratio was 7.8 in data set [1] (MDCK-MDR1) and 2.49 in data set [2] (Caco-2). The values for the IC50 at CYP 2D6 and against CYP 2C19 were 2810 nM and 2540 nM, respectively. In addition, in data set [3], the “half-lives, rodent S9 microsomal stability” value is reported as “greater than 120 min”. In addition, the “dose with apparent minimal prolongation of activated partial thromboplastin time in males” value in the data set on Sprague Dawley rats (after 14-day recovery period) is 10 mg/kg/day. In addition, the albumin concentration result in the data set with Sprague Dawley rats (combination with vancomycin, end of treatment) was “minimal decrease”. The tolerability entry in the data set with Sprague Dawley rats (rat, IV QD 14 days, 0.1-10 mg/kg/day) was “well-tolerated”.

(Values after publication PMC10766536 (The Journal of Antibiotics, 2023).)
